# Ab-14 heavy chain CDR variants: yeast mating affinities

Source: Engelhart et al. 2022 (doi:10.1038/s41597-022-01779-4), MIT Lincoln Laboratory and A-Alpha Bio; data file from the FLAb repository.

Target: peptide PDVDLGDISGINAS, taken from heptad repeat 2 (HR2) of SARS-CoV-2 spike.

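The parent was found by panning a naive human phage display library on the peptide. The library (AAYL49) carries one to three amino acid substitutions per variant, with no insertions or deletions. In AlphaSeq, yeast of one mating type display the scFv and yeast of the other type display the target. The frequency of each diploid, read from paired DNA barcodes, reflects how well the two displayed proteins bind. Each replicate has its own calibration line, from reference interactions of the BCL2 family. There are three technical replicates.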

Ab-14 is the parent antibody, in scFv form: VH, then a 15-residue (Gly4Ser)3 linker, then VL. The light chain is unchanged in all variants.
VH: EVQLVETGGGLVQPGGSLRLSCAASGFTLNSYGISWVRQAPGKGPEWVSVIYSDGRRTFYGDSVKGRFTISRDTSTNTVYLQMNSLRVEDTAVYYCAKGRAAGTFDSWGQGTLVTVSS
VL: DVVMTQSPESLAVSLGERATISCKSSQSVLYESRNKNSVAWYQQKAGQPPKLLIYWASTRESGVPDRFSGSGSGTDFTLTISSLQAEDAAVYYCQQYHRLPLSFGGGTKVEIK

Positions count from residue 1 of the parent VH; S63N puts N in place of S.
Numbers give log10(Kd / nM), so 0 is 1 nM and 3 is 1 µM. Smaller is tighter.
A mean of the replicates is given; it leaves out those without a signal.
"nd" means that the variant was in the library but no mating with the target was seen in any replicate; the authors take this as a sign of poor binding, and no number exists.
Order: sorted from the lowest average up, undetected variants last.
Parent in this assay: reference entry 0.65, copy in this library 4.11 (one replicate of three).

changes,"log10 Kd (nM), mean",detected
S63N S107L,0.29,3 of 3
T28E S31F A101N,0.86,3 of 3
L29I S31M A102C,1.40,3 of 3
S31I I34M F105C,1.50,3 of 3
T28V G61I D106Q,1.52,3 of 3
L29M R56V R100D,1.91,3 of 3
G26E F59Q D62P,1.92,3 of 3
S31F Y60W A101C,2.43,1 of 3
G33K Y52V,2.90,1 of 3
Y32G Y52R,3.09,1 of 3
T58C S63L A101Q,3.09,2 of 3
N30G I51K V64E,3.13,1 of 3
T28K S35I S107V,3.14,1 of 3
Y52W R57S G103M,3.34,1 of 3
Y60E G61W S107E,3.36,1 of 3
I51P A102D T104N,3.44,1 of 3
S31V V50C R57P,3.46,2 of 3
I34Q D54P R57A,3.47,1 of 3
N30Q V64S S107L,3.59,1 of 3
Y32C D62Q,3.59,2 of 3
Y32D V50F Y60M,3.72,2 of 3
T28K I34D D62W,3.82,1 of 3
F27V Y52P F105E,3.88,2 of 3
G33H Y52L A102S,3.92,1 of 3
S35R S53L G61D,4.00,1 of 3
F27W I51C A102Y,4.04,1 of 3
Y32N V64I G99M,4.04,2 of 3
N30E R57V S63R,4.06,1 of 3
S63N T104P D106W,4.09,2 of 3
G26L T104K,4.13,1 of 3
V50G G55T K65T,4.22,1 of 3
G55F G61Q T104F,4.30,1 of 3
R56V T58P G103N,4.39,1 of 3

Continued, with the values leading:

"log10 Kd (nM), mean",detected,changes
4.39,1 of 3,T28Y R56W R100L
4.49,2 of 3,T28A S31V Y32K
4.56,1 of 3,F27E V50W S107P
4.60,2 of 3,T28W L29S A101H
4.72,2 of 3,S35H D62S D106R
4.94,1 of 3,T28L F59S G99H
4.98,1 of 3,S35I R56P K65D
5.20,1 of 3,F27I L29R T58F
5.46,1 of 3,Y32D R56M A101L
5.78,1 of 3,S53C G61K D106R
nd,0 of 3,R57I K65H
nd,0 of 3,T28W Y32Q R57A
nd,0 of 3,I51F Y52G R56H
nd,0 of 3,S35R A102V D106Q
nd,0 of 3,S35A D106K
nd,0 of 3,F27Q F105R
nd,0 of 3,V50P Y60M S107P
nd,0 of 3,V50R Y52G R57G
nd,0 of 3,T58H F59N Y60S
nd,0 of 3,L29D I51W F105N
nd,0 of 3,F27Q T28R I51N
nd,0 of 3,R56T G61H K65F
nd,0 of 3,G55D R56Q A101R
nd,0 of 3,V50M R56P
nd,0 of 3,Y52P D54T R57V
nd,0 of 3,L29N S35Q S107E
nd,0 of 3,A101F T104F
nd,0 of 3,G33L D54R T104W
nd,0 of 3,G61P G103T F105W
nd,0 of 3,I34W A102L G103T
nd,0 of 3,Y32A A101R F105H
nd,0 of 3,L29H N30K T104H
nd,0 of 3,D62K T104R D106Y
nd,0 of 3,G33E F105E

4 of these entries, quoted again:

changes	log10 Kd (nM), mean	detected
F27Q T28R I51N	nd	0 of 3
S35I R56P K65D	4.98	1 of 3
V50G G55T K65T	4.22	1 of 3
S53C G61K D106R	5.78	1 of 3

Three control strains display no target. For library AAYL49, 15% of the pairings with them gave a signal, with a median of 4.06 and one signal in twenty below 2.83, so weak values seen in few replicates may be background.